# Reference: PubChem BioAssay AID2717 (Broad Institute, 2010)
# This is a selection; strong and weak results do not stand in their true shares. Some of these compounds have results that are not shown, active ones among them. The source made the active and inactive calls. Cut-off read from the data, not from the text of the source: active = inhibition above about 75%; inconclusive = no clear call, values can overlap the other calls; inactive = below that; tested in HMLE shEcad cells.
# Assay: growth suppression of cancer stem-like cells – cell-based, luminescence, primary screen (AID 2717)
# Conditions: cancer stem cell-like cells viability, at 7.5 µM, stronger effect = higher value
row,Compound,inhibition
1,COc1ccc(C(=O)NCC2(N(C)C)CCCCC2)cc1,inactive: -7.1%
2,CCN1CCCC(OC(=O)C2(O)c3ccccc3C=Cc3ccccc32)C1 (configuration not stated),inactive: -1.04%
3,Cc1cc(C(=O)NCC2(N3CCCCC3)CCCCC2)ccc1[N+](=O)[O-],inactive: 16%
4,O=C(NCC1(N2CCCCC2)CCCCC1)c1cccc(Br)c1,inactive: -2.3%
5,C=CCN1CCN(CCOC(=O)C(O)(c2ccccc2)c2ccccc2)CC1,inactive: -6.96%
6,Cc1ccccc1C(=O)NCC1(N2CCCCC2)CCCCC1,inactive: -12.1%
7,CN(C)c1ccc(C(=O)NCC2(N(C)C)CCCCC2)cc1,inactive: -4.27%
8,CN(C)C1CCCC1OC(=O)C(O)(c1ccccc1)c1ccccc1 (configuration not stated),inactive: -2.59%
9,Cc1ccc(C(=O)NCC2(N3CCCCC3)CCCCC2)cc1,inactive: -4.12%
10,CCN(CC)CC(C)C(C)OC(=O)C(O)(c1ccccc1)c1ccccc1 (configuration not stated),inactive: -18.2%
11,COc1cc(SC)ccc1C(=O)NCC1(N(C)C)CCCCC1,inactive: -6.21%
12,CC(C)N1C(=O)CC2(CCN(CCOC(=O)C(O)(c3ccccc3)c3ccccc3)CC2)C1=O,inactive: -15.5%
13,CN1[C@@H]2CC[C@H]1CC(OC(=O)C(O)(c1ccccc1)c1ccccc1)C2 (some centres not stated),inactive: -11.1%
14,O=C(NCC1(N2CCCCC2)CCCCC1)c1cc([N+](=O)[O-])ccc1Cl,inactive: 4.91%
15,CC(C)Oc1ccc(C(=O)NCC2(N(C)C)CCCCC2)cc1,inactive: -4.63%
16,CN(C)c1cccc(C(=O)NCC2(N(C)C)CCCCC2)c1,inactive: -0.153%
17,COc1ccc(Br)c(C(=O)NCC2(N3CCCCC3)CCCCC2)c1,inactive: 8.12%
18,O=C(OC1CN2CCC1CC2)C(CO)(c1ccccc1)c1ccccc1 (configuration not stated),inactive: -19.9%
19,O=C(NCC1(N2CCCCC2)CCCCC1)c1cccc(Cl)c1,inactive: -5.06%
20,COc1ccc(Cl)cc1C(=O)NCC1(N(C)C)CCCCC1,inactive: -10.3%
21,COc1cc(C(=O)NCC2(N(C)C)CCCCC2)c([N+](=O)[O-])cc1OC,inactive: -10.2%
22,CN(C)C1(CNC(=O)c2ccc(Br)cc2)CCCCC1,inactive: -14.7%
